“Also recorded” adds a separate entry of the source.
Columns and labels:
[1] = biological target: T1, VPAC1-R (Homo sapiens, UniProt P32241); experiment: [3H]cAMP generation in VPAC1-R/PANC-1 cells; format: cell-based; conditions: for EC50: read-out: [3H]cAMP VPAC1-R/PANC-1 EC50; for EC50 / [3H]cAMP VPAC1-R/PANC-1 % max (agonist class): VPAC1-R/PANC-1 cells; for greater affinity than potency for stimulating cAMP generation, VPAC1-R/PANC-1 cells: EC50 cAMP over binding IC50; for [3H]cAMP VPAC1-R/PANC-1 % max (agonist class): relative to PACAP38, up to 1 µM
[2] = biological target: T2, VPAC2-R (Homo sapiens, UniProt P41587); experiment: [3H]cAMP generation in VPAC2-R/PANC-1 cells; format: cell-based; conditions: read-out: [3H]cAMP VPAC2-R/PANC-1 EC50; VPAC2-R/PANC-1 cells
T2 sequence (P41587 24-438): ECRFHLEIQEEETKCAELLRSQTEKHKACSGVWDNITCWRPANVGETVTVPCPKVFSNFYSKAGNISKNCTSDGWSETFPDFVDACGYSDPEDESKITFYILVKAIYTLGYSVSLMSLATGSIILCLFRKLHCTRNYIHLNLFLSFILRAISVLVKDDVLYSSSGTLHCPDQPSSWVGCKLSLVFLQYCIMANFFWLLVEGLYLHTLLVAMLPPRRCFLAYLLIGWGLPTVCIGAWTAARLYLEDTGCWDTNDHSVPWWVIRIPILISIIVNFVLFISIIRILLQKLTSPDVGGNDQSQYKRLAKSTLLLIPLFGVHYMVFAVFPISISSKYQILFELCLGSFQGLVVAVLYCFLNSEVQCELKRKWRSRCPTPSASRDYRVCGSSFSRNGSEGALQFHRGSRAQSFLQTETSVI

Chains of the proteins cited; added tags and fusions are not shown. Residues count along the entry.
UniProt P32241, 31-457, species assumed: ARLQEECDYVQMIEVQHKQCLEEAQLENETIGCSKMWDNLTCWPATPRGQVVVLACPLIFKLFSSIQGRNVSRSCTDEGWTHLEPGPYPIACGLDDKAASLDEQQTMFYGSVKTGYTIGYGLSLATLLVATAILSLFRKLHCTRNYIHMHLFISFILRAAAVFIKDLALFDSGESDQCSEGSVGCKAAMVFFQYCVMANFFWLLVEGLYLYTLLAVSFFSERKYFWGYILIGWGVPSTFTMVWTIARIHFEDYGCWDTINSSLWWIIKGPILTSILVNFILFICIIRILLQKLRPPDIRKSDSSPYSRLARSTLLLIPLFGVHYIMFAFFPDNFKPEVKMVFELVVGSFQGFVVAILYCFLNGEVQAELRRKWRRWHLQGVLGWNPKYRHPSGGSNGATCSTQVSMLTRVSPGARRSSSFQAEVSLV

[3] = biological target: T3, PAC1-R (Homo sapiens, UniProt P41586); experiment: [3H]cAMP generation in PAC1-R cells; format: cell-based; conditions: for higher potency for PAC1-R cells compared to VPAC1-R/PANC-1 cells / higher potency for PAC1-R cells compared to VPAC2-R/PANC-1 cells: cAMP generation EC50 ratio; for EC50: read-out: [3H]cAMP PAC1-R EC50; for EC50 / [3H]cAMP PAC1-R % max (agonist class): PAC1-R cells; for [3H]cAMP PAC1-R % max (agonist class): relative to maximal stimulation by PACAP38, up to 1 µM
T3 sequence (P41586 21-468): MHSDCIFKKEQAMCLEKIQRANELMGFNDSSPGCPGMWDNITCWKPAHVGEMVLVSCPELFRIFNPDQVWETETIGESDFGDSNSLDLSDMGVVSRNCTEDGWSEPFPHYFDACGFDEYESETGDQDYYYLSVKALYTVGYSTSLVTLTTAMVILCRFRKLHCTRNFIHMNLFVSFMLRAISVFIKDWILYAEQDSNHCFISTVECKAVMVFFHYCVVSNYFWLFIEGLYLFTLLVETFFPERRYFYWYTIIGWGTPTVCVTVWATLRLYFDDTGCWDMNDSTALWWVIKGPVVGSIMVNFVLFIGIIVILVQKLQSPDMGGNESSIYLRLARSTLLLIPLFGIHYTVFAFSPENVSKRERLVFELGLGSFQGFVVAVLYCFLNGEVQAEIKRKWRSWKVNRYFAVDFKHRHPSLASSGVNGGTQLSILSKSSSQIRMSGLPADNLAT

[4] = biological target: T1, VPAC1-R; experiment: [3H]cAMP generation in T47D cells; format: cell-based; conditions: T47D cells; for EC50: read-out: [3H]cAMP T47D EC50; for [3H]cAMP T47D % max (agonist class): relative to PACAP38, up to 1 µM
[5] = biological target: T2, VPAC2-R; format: binding; conditions: read-out: IC50 VPAC2-R, Sup-T1; Sup-T1 cells, 75 pM 125I-Ro 25-1553, 37°C
[6] = biological target: T3, PAC1-R; experiment: Binding of 125I-PACAP27 to PAC1-R stably transfected NIH 3T3 cells; conditions: for lower affinity for PAC1-R cells than VPAC2-R/PANC-1 cells: binding IC50 ratio, VPAC2-R preferring; for decrease in affinity for PAC1-R cells compared to native PACAP38 (or PACAP27): ratio of binding IC50, analog vs native parent peptide
[7] = biological target: T1, VPAC1-R; experiment: Binding of 125I-VIP to VPAC1-R/PANC-1 cells; conditions: ratio of binding IC50, analog vs native parent peptide

Substance	EC50 [1]	EC50 [2]	higher potency for PAC1-R cells compared to VPAC1-R/PANC-1 cells [3]	higher potency for PAC1-R cells compared to VPAC2-R/PANC-1 cells [3]	EC50 [3]	EC50 [4]	IC50 [5]	lower affinity for PAC1-R cells than VPAC2-R/PANC-1 cells [6]	decrease in affinity for PAC1-R cells compared to native PACAP38 (or PACAP27) [6]	decrease in affinity for VPAC1-R/PANC-1 cells compared to native PACAP38 (or PACAP27, VIP) [7]	greater affinity than potency for stimulating cAMP generation, VPAC1-R/PANC-1 cells [1]	[3H]cAMP T47D % max, agonist activity at 1 µM, still increasing ([4]; at 1 µM)	[3H]cAMP T47D % max (agonist class) [4]	higher affinity (selectivity) for PAC1-R cells over VPAC2-R/PANC-1 cells ([6]; IC50 VPAC2-R/PANC-1 divided by IC50 PAC1-R, binding)	[3H]cAMP VPAC1-R/PANC-1 % max (agonist class) [1]	[3H]cAMP PAC1-R % max (agonist class) [3]
[Iaa^1,D-Ala^2,Ala^22]PACAP38 [Peptide P51]	20.4 ± 1.5 nM	323 ± 20 nM	2-to-5 fold	12–140 fold	9.12 ± 0.67 nM	7.1 ± 0.47 nM	162 ± 10 nM	2–9 fold	100–300 fold	30-to-100 fold						
[Iaa^1,D-Ser^2,Ala^22]PACAP38 [Peptide P48]	83 ± 9 nM	> 1000 nM	16–50 fold	> 1,000 fold	2.19 ± 0.17 nM	501 ± 27 nM	295 ± 16 nM		100–300 fold	180-to-620 fold						
[Iaa^1,D-Tyr^2,Ala^22]PACAP38 [Peptide P49]	389 ± 33 nM	501 ± 36 nM	2-to-5 fold	2–5 fold	98 ± 2 nM	832 ± 63 nM	200 ± 16 nM	2–9 fold	> 350 fold	180-to-620 fold	1.2–65.2 fold	Ag (1 µM, 54) % max	Ag (1 µM, 54)			
[N-Ac-His^1,Ala^16,17,D-Lys^38]PACAP38 [Peptide P28]	0.95 ± 0.12 nM	3.02 ± 0.1 nM	6–15 fold	34 fold	0.09 ± 0.01 nM	7.08 ± 0.71 nM	0.32 ± 0.02 nM		4–5 fold	3–20 fold				same affinity		
[Pip^3,Aib^16,28,Ala^17,21,Lys^34,D-Lys^38]PACAP38 [Peptide P40]	> 1000 nM	> 1000 nM			> 1000 nM	> 1000 nM	> 1000 nM		> 1,000 fold	> 1,000 fold			No Act		no agonist activity; also recorded: No Act	no agonist activity; also recorded: No Act
[Pip^3,Aib^16,28,Ala^17,Lys^34,D-Lys^38]PACAP38 [Peptide P35]	> 1000 nM	> 1000 nM	6–15 fold	7-to-15 fold	407 ± 20 nM	> 1000 nM	660 ± 20 nM	2–4 fold	> 1,000 fold	180-to-620 fold	1.2–65.2 fold		No Act		Ag (1 µM, 48)	Ag (1 µM, 81)

Reference: PMC4420714 (Peptides, 2015)
